The text below walks through data of US20140234252A1, “Composition and Methods for the Treatment of Degenerative Retinal Conditions” (The Provost, Fellows, Foundation Scholars, and the other …, priority 2011, published 2014).

One experiment concerns human PBMC. Put plainly: IL-1β ELISA in human PBMC primed with CEP-HSA or HSA and activated with ATP. Type of experiment: cell-based. Conditions: PBMCs primed with increasing concentrations (50 and 100 μg/ml), activated with ATP. The procedure: (§1) FIG. 2: CEP, a component of Drusen can prime the NLRP3 inflammasome: (a) Production of IL-1β in Human PBMC primed with LPS, CEP-adducted albumin (CEP-HSA) or HSA in increasing doses (50 and 100 μg ml^−1) and subsequently treated with 5 mM ATP. (b) IL-1β production in WT and Nlrp3^-/- BMDMs primed with CEP-HSA and then activated with either ATP or Poly(dAdT). (c, d) IL-1β and IL-6 production in WT or Tlr2^-/- BMDMs primed with HSA or CEP-HSA, activated with ATP or left un-treated. (e,f) IL-1β and TNFα production were measured in C3H/HeN BMDMs (WT) or C3H/HeJ BMDMs (which contain a mutant TLR4) primed with either LPS or CEP and activated with ATP. (g) Live cell imaging of immortalised BL6 BMDMs stably expressing YFP-ASC. Cells were primed for 3 h with CEP-HSA (top panel) or HSA (bottom panel) followed by treatment with 250 ng/ml Drusen for a further 2 hrs. Oligomerisation of ASC-YFP was observed by speck formation, original magnification ×60. All ELISA data are representative of a minimum of 3 separate experiments carried out in triplicate.
ELISA's were used to quantify cytokines in supernatants from the various experimental groups used throughout this study. IL-1β (RnD Systems), IL-18 (MBL International), IL-6 (RnD Systems), TNF-α (RnD Systems) and VEGF (RnD Systems) were analyzed throughout. All ELISA's were conducted a minimum of 3 times in triplicate. […]
Background: ELISA stands for enzyme-linked immunosorbent assay.

Another experiment deals with BMDMs. In words: Cytokine ELISA in BMDMs primed with CEP-HSA or HSA and activated with ATP. Type of experiment: cell-based, mouse. Conditions: for IL-1β production / IL-1β induction: activated with ATP; for IL-1β induction: WT versus TLR2-/- BMDMs primed. As for the experimental part:
as §1
ELISA's were used to quantify cytokines in supernatants from the various experimental groups used throughout this study. IL-1β (RnD Systems), IL-18 (MBL International), IL-6 (RnD Systems), TNF-α (RnD Systems) and VEGF (RnD Systems) were analyzed throughout. All ELISA's were conducted a minimum of 3 times in triplicate. Inhibitors used during this study were added at the following highest concentrations 1 h prior to inflammasome activation: 1 μg/ml of caspase-1 inhibitor VI (Calbiochem), 5 μM cytochalasin D (Sigma Aldrich, Ireland), 10 μM CA-074 Me (cathepsin B inhibitor) (Sigma Aldrich, Ireland), 10 μM DPI (Sigma Aldrich, Ireland).
ARPE-19 cell line (ATCC CRL 2302) were obtained from LGC promochem, THP1 cells and primary isolated human peripheral blood mononuclear […] (PBMCs) were used for in vitro inflammasome activation assays. Cells were cultured at 37° C., 5% CO2, 95% air in a 1:1 mixture of Dulbecco's modified Eagle's medium (DMEM) and Ham's F12 medium with 1.2 g/L sodium bicarbonate, 2.5 mM L-glutamine, 15 mM HEPES, 0.5 mM sodium pyruvate (Sigma Aldrich) with 10% foetal calf serum (FCS). BMDCs and BMDMs were also isolated from WT, NLRP3-/-, TLR-2-/-, C3H/HeN and C3H/HeJ mice on a congenic C57/B16 background. BMDCs and BMDMs were stained with anti-CD11c-APC and anti-CD11b-PeCy7. Cells were gated on live single cells and expression of CD11c and CD11b was assesed by flow cytometry (FIG. 19). Mouse bEnd.3 microvascular endothelial cells were grown on fibronectin (Sigma Aldrich Ireland) coated tissue culture flasks in DMEM containing Glutamax and 10% FCS.

For the substance “CEP-HSA: Human Serum Albumin adducted with carboxyethyl pyrrole (CEP)”, the IL-1β levels entry in the experiment with human PBMC is reported as “increased”. In addition, the IL-1β production result is given as “produced IL-1β” in the experiment with BMDMs (C3H/HeJ BMDMs (mutant TLR4) primed), “not observed” with BMDMs (Nlrp3-/- BMDMs primed) and “produced IL-1β” with BMDMs (WT BMDMs primed). Moreover, the TNF-α entry in the experiment with BMDMs (WT C3H/HeN BMDMs primed) was “but not CEP primed cells”. Moreover, in the experiment with BMDMs, the IL-1β induction result is listed as “induced IL-1β increases in WT but not TLR2^-/- BMDMs”.
As to “HSA: Human Serum Albumin, unadducted control”, in the experiment on human PBMC, the IL-1β levels entry is given as “no changes were observed”. Besides, the IL-1β induction result in the experiment on BMDMs is reported as “no IL-1β induction was observed”.
